In patent US20210198248A1, “FUMARATE SALT OF 5-((5-METHYL-2-((3,4,5-TRIMETHYLPHENYL)AMINO)PYRIMIDIN-4-YL)AMINO)-BENZO[D]OXAZOL-2(3H)-ONE” (ASTRAZENECA AB, priority 2018, published 2021):

Assay: Dissolution measurements, μ-DISS Profiler, micronized material
Assay type: physicochemical
Method: In general, 0.5 mg of the micronized material was added to the stirred dissolution media (20 mL 0.1 M acetate buffer, pH 4.5, 200 rpm, at 37° C.). The dissolution profiles were generated by measuring the UV absorbance at 280 nm wavelength. The material of interest was evaluated in triplicate.
The particle size of the materials was reduced by micronisation, as follows, using a 2″ Spiral Jet Mill or a 1″ MCOne fluid Jet Mill followed by subsequent particle size distribution (PSD) measurements.
Test substance was fed into the jet mill chamber, via a venturi feed system, by a vibratory feeder. Micronisation was achieved by particle collisions brought about by compressed gas (nitrogen) forced through angled nozzles in the jet mill chamber. Particles of different sizes develop different speeds and momentum and as the particle size is reduced the particles spiral towards the centre of the jet mill and exit via an exhaust into a collection bin. The process parameters that control the particle size, in addition to the inherent properties of the compound to be micronised, are the feed rate, grinding pressure and venturi pressure and these are summarised in Table 2 below.

Cc1cnc(Nc2cc(C)c(C)c(C)c2)nc1Nc1ccc2oc(=O)[nH]c2c1 [hemi-fumarate salt, 5-((5-methyl-2-((3,4,5-trimethylphenyl)-amino)pyrimidin-4-yl)amino)benzo[d]oxazol-2(3H)-one hemi-fumarate Salt]
dissolution rate compared to free base (0.1 M acetate buffer pH 4.5, 37° C., micronized material): enhanced dissolution rate | dissolution profile (suitability) (balance of solubility and kinetics of salt dissociation compared to the free base): suitable dissolution profile | intrinsic dissolution rate (general statement, compared to Compound (I) free base): good intrinsic dissolution rate

Counter-ions that a name gives are not always drawn.
